The results in this text go back to patent US9040663B2, “Melanocortin receptor-specific peptides” (AstraZeneca AB, priority 2009, dated 2015).

As usually defined, the Ki is the equilibrium dissociation constant of an inhibitor or competing ligand from its target. A low value points to tighter binding.

Structures are written as SMILES.

The experiment deals with MC1-R. The experiment can be described thus: Competitive inhibition binding assay using [I125]-NDP-α-MSH, MC1-R. As to conditions: membranes of B-16 mouse melanoma cells (endogenous MC1-R), in some instances HEK-293 hMC1-R. As to the method:
7.1 Competitive Inhibition Assay using [I^125]-NDP-α-MSH.
A competitive inhibition binding assay was performed for exemplified peptides according to the invention using membrane homogenates prepared from HEK-293 cells that express recombinant hMC4-R, hMC3-R, or hMC5-R, and from B-16 mouse melanoma cells (containing endogenous MC1-R). In some instances, HEK-293 cells that express recombinant hMC1-R were employed. Assays were performed in 96 well GF/B Millipore multiscreen filtration plates (MAFB NOB10) pre-coated with 0.5% bovine serum albumin (Fraction V). Membrane homogenates were incubated with 0.2 nM (for hMC4-R) 0.4 nM (for MC3-R and MC5-R) or 0.1 nM (for mouse B16 MC1-R or hMC1-R) [I^125]-NDP-α-MSH (Perkin Elmer) and increasing concentrations of test peptides of the present invention in buffer containing 25 mM HEPES buffer (pH 7.5) with 100 mM NaCl, 2 mM CaCl2, 2 mM MgCl2, 0.3 mM 1,10-phenanthroline, and 0.2% bovine serum albumin. After incubation for 60 minutes at 37° C., the assay mixture was filtered and the membranes washed three times with ice-cold buffer. Filters were dried and counted in a gamma counter for bound radioactivity. […] Maximal specific binding (100%) was defined as the difference in radioactivity (cpm) bound to cell membranes in the absence and presence of 1 μM NDP-α-MSH. […] Each assay was conducted in triplicate and the actual mean values are described, with results less than 0% reported as 0%. Ki values for test peptides of the present invention were determined using Graph-Pad Prism® curve-fitting software.
The molecule `CC(=O)N[C@@H](CCCNC(=N)N)C(=O)N[C@H]1CCC(=O)NCCC[C@@H](C(N)=O)NC(=O)[C@H](Cc2c[nH]c3ccccc23)NC(=O)[C@H](CCCNC(=N)N)NC(=O)[C@@H](Cc2cccc(Cl)c2)NC(=O)[C@H](CCN)NC1=O` [Example 2, Ac-Arg-cyclo(Glu-Dab-D-Phe(3-Cl)-Arg-Trp-Orn)-NH2] registered an inhibitory constant (Ki) of 1 nM. `CC(=O)N[C@@H](CCCNC(=N)N)C(=O)N[C@H]1CCC(=O)NCCC[C@@H](C(N)=O)NC(=O)[C@H](Cc2c[nH]c3ccccc23)NC(=O)[C@H](CCCNC(=N)N)NC(=O)[C@@H](Cc2ccccc2F)NC(=O)[C@H](CCN)NC1=O` [Example 9, Ac-Arg-cyclo(Glu-Dab-D-Phe(2-F)-Arg-Trp-Orn)-NH2] returned an inhibition constant Ki of 0.8 nM. In the case of `CC(=O)N[C@@H](CCCNC(=N)N)C(=O)N[C@H]1CCC(=O)NCCC[C@@H](C(N)=O)NC(=O)[C@H](Cc2c[nH]c3ccccc23)NC(=O)[C@H](CCCNC(=N)N)NC(=O)[C@@H](Cc2cccc(C(F)(F)F)c2)NC(=O)[C@H](CCN)NC1=O` [Example 14, Ac-Arg-cyclo(Glu-Dab-D-Phe(3-CF3)-Arg-Trp-Orn)-NH2] it was 9 nM; in that of `CC(=O)N[C@@H](CCCNC(=N)N)C(=O)N[C@H]1CCCNC(=O)CC[C@@H](C(N)=O)NC(=O)[C@H](Cc2c[nH]c3ccccc23)NC(=O)[C@H](CCCNC(=N)N)NC(=O)[C@@H](Cc2cc(F)cc(F)c2)NC(=O)[C@H](CC(N)=O)NC1=O` [Example 77, Ac-Arg-cyclo(Orn-Asn-D-Phe(3,5-diF)-Arg-Trp-Glu)-NH2], 190 nM; in that of `CC(=O)N[C@@H](CCCNC(=N)N)C(=O)N[C@H]1CCC(=O)NCCC[C@@H](C(N)=O)NC(=O)[C@H](Cc2c[nH]c3ccccc23)NC(=O)[C@H](CCCNC(=N)N)NC(=O)[C@@H](Cc2ccccc2C(F)(F)F)NC(=O)[C@H](CC(N)=O)NC1=O` [Example 116, Ac-Arg-cyclo(Glu-Asn-D-Phe(2-CF3)-Arg-Trp-Orn)-NH2], 380 nM. `CC(=O)N[C@H](CCCNC(=N)N)C(=O)N[C@H]1CCCNC(=O)CC[C@@H](C(N)=O)NC(=O)[C@H](Cc2c[nH]c3ccccc23)NC(=O)[C@H](CCCNC(=N)N)NC(=O)[C@@H](Cc2ccccc2Cl)NC(=O)[C@H](Cc2c[nH]cn2)NC1=O` [Example 50, Ac-D-Arg-cyclo(Orn-His-D-Phe(2-Cl)-Arg-Trp-Glu)-NH2] displayed an inhibition constant (Ki) of 2 nM. As to `CC(=O)N[C@H](CCCNC(=N)N)C(=O)N[C@H]1CCCNC(=O)CC[C@@H](C(N)=O)NC(=O)[C@H](Cc2c[nH]c3ccccc23)NC(=O)[C@H](CCCNC(=N)N)NC(=O)[C@@H](Cc2ccc(F)c(F)c2)NC(=O)[C@H](Cc2c[nH]cn2)NC1=O` [Example 54, Ac-D-Arg-cyclo(Orn-His-D-Phe(3,4-diF)-Arg-Trp-Glu)-NH2], the affinity, expressed as Ki, was 0.7 nM.

As to `CC(=O)N[C@@H](CCCNC(=N)N)C(=O)N[C@H]1CCCNC(=O)CC[C@@H](C(N)=O)NC(=O)[C@H](Cc2c[nH]c3ccccc23)NC(=O)[C@H](CCCNC(=N)N)NC(=O)[C@@H](Cc2cccc(C)c2)NC(=O)[C@H](CC(N)=O)NC1=O` [Example 72, Ac-Arg-cyclo(Orn-Asn-D-Phe(3-Me)-Arg-Trp-Glu)-NH2], affinity was put at a Ki of 2300 nM.

The molecule `CC(=O)N[C@@H](CCCNC(=N)N)C(=O)N[C@H]1CCC(=O)NCCC[C@@H](C(N)=O)NC(=O)[C@H](Cc2c[nH]c3ccccc23)NC(=O)[C@H](CCCNC(=N)N)NC(=O)[C@@H](Cc2ccccc2Cl)NC(=O)[C@H](CN)NC1=O` [Example 62, Ac-Arg-cyclo(Glu-Dap-D-Phe(2-Cl)-Arg-Trp-Orn)-NH2] came in with an inhibition constant (Ki) of 28 nM. In the case of `CC(=O)N[C@@H](CCCNC(=N)N)C(=O)N[C@H]1CCC(=O)NCCC[C@@H](C(N)=O)NC(=O)[C@H](Cc2c[nH]c3ccccc23)NC(=O)[C@H](CCCNC(=N)N)NC(=O)[C@@H](Cc2ccccc2F)NC(=O)[C@H](CCC(N)=O)NC1=O` [Example 59, Ac-Arg-cyclo(Glu-Gln-D-Phe(2-F)-Arg-Trp-Orn)-NH2] it was 58 nM. For `CC(=O)N[C@H](CCCNC(=N)N)C(=O)N[C@H]1CC(=O)NCCCC[C@@H](C(N)=O)NC(=O)[C@H](Cc2c[nH]c3ccccc23)NC(=O)[C@H](CCCNC(=N)N)NC(=O)[C@@H](Cc2ccccc2F)NC(=O)[C@H](CCC(N)=O)NC1=O` [Example 82, Ac-D-Arg-cyclo(Asp-Gln-D-Phe(2-F)-Arg-Trp-Lys)-NH2], the affinity, expressed as Ki, was 220 nM. The molecule `CC(=O)N[C@@H](CCCNC(=N)N)C(=O)N[C@H]1CCC(=O)NCCC[C@@H](C(N)=O)NC(=O)[C@H](Cc2c[nH]c3ccccc23)NC(=O)[C@H](CCCNC(=N)N)NC(=O)[C@@H](Cc2ccccc2C#N)NC(=O)[C@H](CCN)NC1=O` [Example 12, Ac-Arg-cyclo(Glu-Dab-D-Phe(2-CN)-Arg-Trp-Orn)-NH2] returned a Ki of 35 nM. As to `CC(=O)N[C@@H](CCCNC(=N)N)C(=O)N[C@H]1CCC(=O)NCCC[C@@H](C(N)=O)NC(=O)[C@H](Cc2c[nH]c3ccccc23)NC(=O)[C@H](CCCNC(=N)N)NC(=O)[C@@H](Cc2ccc(C)cc2)NC(=O)[C@H](CCN)NC1=O` [Example 15, Ac-Arg-cyclo(Glu-Dab-D-Phe(4-Me)-Arg-Trp-Orn)-NH2], the inhibitory constant (Ki) is 0.75 nM. `CC(=O)N[C@@H](CCCNC(=N)N)C(=O)N[C@H]1CCCNC(=O)CC[C@@H](C(N)=O)NC(=O)[C@H](Cc2c[nH]c3ccccc23)NC(=O)[C@H](CCCNC(=N)N)NC(=O)[C@@H](Cc2ccccc2C)NC(=O)[C@H](CCC(N)=O)NC1=O` [Example 111, Ac-Arg-cyclo(Orn-Gln-D-Phe(2-Me)-Arg-Trp-Glu)-NH2] had a Ki of 145 nM. Molecule `CC(=O)N[C@@H](CCCNC(=N)N)C(=O)N[C@H]1CCC(=O)NCCC[C@@H](C(N)=O)NC(=O)[C@H](Cc2c[nH]c3ccccc23)NC(=O)[C@H](CCCNC(=N)N)NC(=O)[C@@H](Cc2ccccc2C)NC(=O)[C@H](CC(N)=O)NC1=O` [Example 73, Ac-Arg-cyclo(Glu-Asn-D-Phe(2-Me)-Arg-Trp-Orn)-NH2] displayed an inhibitory constant (Ki) of 160 nM.
